# Only some compounds are listed: those with a hit (about 2.3% of all), similar ones and a draw of the others.
# miR-21 FLuc = raises the signal of a miR-21 reporter | HeLa miR-21 FLuc reporter, luciferase, 48 h | Potency, µM (doses to about 38.3 µM), without a hit: at the top dose reporter change, positive = more light | 340,000 tested, under 10 active | AID 2288; active = well fitted rising curve with a large enough effect; inconclusive = small, poorly fitted or top-dose-only effect; inactive = no such curve, though single readings can be large or run the other way;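 note: % of control where 0% means no effect; miR-21 action dims this reporter so a rising signal means less miR-21 action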
#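 HeLa cells endogenously expressing miR-21, stably carrying CMV-driven firefly luciferase with a downstream miR-21 binding site, 2000 cells/well. Titrations up to approximately 40 uM, 48 hours; luciferase luminescence read.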
# Mito fusion act = inhibitors of mitochondrial division or activators of mitochondrial fusion; S. cerevisiae fusion-defective mutant growth rescue, CellTiterGlo 48 h; Potency, µM (series often up to 46.1 µM), for the others: at the top dose growth rescue (activation), hits mostly activators; actives 0.23% (n = 320,000); AID 485298; further: potency means the concentration at half of the fitted maximal effect; % of control where 0% means no effect; nearly all actives have a fitted effect of over 45% in size
#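 Compounds are tested for their ability to restore growth of mitochondrial fusion-defective yeast strains at non-permissive 37C in YPEG medium over 48 hours. Viability is quantified by luciferase luminescence.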
# Glioma ERSR ind = ER stress response induction in glioma; U87-MG GRP78 promoter luciferase reporter, 16 h; Potency, µM, for the others: at the top dose activation, most hits filed as activators; actives 0.02% (n = 420,000); further: potency means the concentration at half of the fitted maximal effect; series mostly up to about 76 µM; % of control where 0% means no effect; nearly all actives have a fitted effect of over 35% in size
#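 ERSR induction read as luciferase luminescence (Bright-Glo, 10 min at room temperature) in stably transfected human U87-MG glioma cells exposed to compounds for 16 h, using GRP78 as sensor.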
# A549 tox = counter-screen for Nrf2 inhibitors: cytotoxicity in A549 cells. Potency, µM (top dose mostly 46 µM), without a hit: top-dose activity change, negative = cytotoxicity, usual class: inhibitors. actives 0.16% (n = 390,000). A549 ARE-Fluc cells, CellTiter-Fluor viability, 18-24 h; further: potency means the concentration at half of the fitted maximal effect; on the % scale 0 is the no-effect control and ±100 the full control effect
#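 Cytotoxicity counterscreen: CellTiter-Fluor fluorescence was measured in A549 ARE_Fluc cells after 18-24 h of compound exposure in a concentration series. The subsequent BugLite luminescent read reports ARE-luciferase activity.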
# Nrf2 inh = inhibitors of Nrf2 signaling; A549 ARE-Fluc reporter, luciferase luminescence, 18-24 h; Potency, µM (top dose mostly 46 µM), without a hit: at the highest dose activity change, negative = inhibition, hits mostly inhibitors; actives 2.1% (n = 360,000); AID 504444; further: potency means the concentration at half of the fitted maximal effect; on the % scale 0 is the no-effect control and ±100 the full control effect; nearly all actives have a fitted effect of over 60% in size
#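 Cells were seeded and rested 2 h, then exposed to compounds for 18-24 h. CellTiter-Fluor was read first as a viability measure. BugLite was added 15 min before the final luminescent read of ARE-luciferase activity in A549 cells.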
# Nrf2 activator = activators of Nrf2 (ARE) signaling; AREc32 ARE-luciferase reporter (MCF7-derived line), luminescence, 24 h; actives 0.31% (n = 410,000); AID 624171; Potency, µM (doses to about 46.1 µM), inactives show top-dose activation, usual class: activators; further: potency means the concentration at half of the fitted maximal effect; % of control where 0% means no effect; nearly all actives have a fitted effect of over 65% in size
#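 ARE-driven firefly luciferase activity in AREc32 cells measured after a 24 hr compound exposure at 37 deg C, using Steady-Glo reagent and a 30 min room-temperature hold.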
# The depositor's hits bear a star; ? = inconclusive; · = no result given; [ ] = another dose, or the depositor's remark. The call rests on the fitted dose curve; in most records, active means well fitted curve in the direction sought with a large enough effect; inconclusive means small, poorly fitted or top-dose-only effect, or another doubt; inactive means no such curve, though single readings can be large; an effect the other way counts as inactive or inconclusive.
SMILES,miR-21 FLuc,Mito fusion act,Glioma ERSR ind,A549 tox,Nrf2 inh,Nrf2 activator
COc1ccc(Cl)cc1CN1C(=O)NC2(CCCCCC2)C1=O,-1%,6%,3%,-1%,?,0%
CC(C)CCNC(=O)[C@H](CC(C)C)NC(=O)[C@H]1O[C@@H]1C(=O)O,1%,-7%,·,·,·,·
CCOC(=O)[C@H]1O[C@@H]1C(=O)N[C@@H](CC(C)C)C(=O)NCCC(C)C,-1%,-15%,4%,21µM*,10%,5%
CCOc1ccc(S(=O)(=O)NC(C)(C)C)cc1-c1nc2c(C(C)(C)C)nn(C)c2c(=O)[nH]1,?,9%,-3%,?,21µM*,-2%
COc1ccccc1C(=O)N1CCN(c2nc3cc(C)c(C)cc3cc2C#N)CC1,14%,11%,-8%,-26%,23µM*,0%
Cc1cc(C(=O)CSc2nc(N)cc(N)n2)c(C)n1CCc1ccc(F)cc1,13%,-1%,-8%,-19%,15µM*,3%
CC(=O)Nc1ccc2c(c1)C(=O)N(c1cccc3ccccc13)C2=O,-1%,-6%,-3%,-2%,2%,-1%
Cc1ccc(Cl)cc1N1CCN(c2cccc[n+]2C)CC1,22%,-6%,-6%,3%,8.2µM*,-1%
CCOc1ccc(NC(=O)CCn2ccnc2)cc1,1%,9%,-7%,2%,0%,-1%
CCOC(=O)N1CCN(C(=O)c2ccc(NS(=O)(=O)c3ccc(F)cc3)cc2)CC1,-3%,3%,-3%,-2%,16µM*,-1%
CCOc1ccc(NS(=O)(=O)c2ccc(C(=O)N3CCCCC3)cc2)cc1,15%,0%,-5%,-4%,?,0%
CCOc1ccc(NS(=O)(=O)c2ccc(C(=O)N(C)Cc3cccc(OC)c3OC)cc2)cc1,15%,5%,-3%,-7%,15µM*,3%
CCOc1ccc(NS(=O)(=O)c2ccc(C(=O)N3CCN(c4ncccn4)CC3)cc2)cc1,28%,1%,-3%,-21%,16µM*,2%
CCN(CCCNC(=O)CCC(=O)N1CCOc2ccccc21)Cc1ccccc1,1%,-1%,-5%,-2%,-3%,5%
C=CCSc1nnc2nc3c(nn12)c1cc(C)ccc1n3CC=C,-15%,14%,-6%,-5%,-20%,0%
CC1=C/C(=C(\c2cc(C)c(O)c(Br)c2)c2ccccc2S(=O)(=O)O)C=C(Br)C1=O,27%,-20%,-11%,16µM*,?,-3%
Cc1cc(C(=O)c2ccccc2)cc(C)c1O,·,·,2%,1%,16%,0%
Cc1noc(/C=C/Nc2ccc(F)cc2F)c1[N+](=O)[O-],-39%,-1%,-3%,-21%,5%,2.8µM*
COc1ccccc1N/C=C/c1onc(C)c1[N+](=O)[O-],-25%,0%,-11%,?,?,-2%
COc1ccc2nc(-c3ccccc3)cc(C(=O)OCC(=O)N3CC(C)OC(C)C3)c2c1 (configuration not stated),·,28%,4%,9%,?,1%

# Compound profiles, as listed above:
# `CC(C)CCNC(=O)[C@H](CC(C)C)NC(=O)[C@H]1O[C@@H]1C(=O)O` as listed: miR-21 FLuc: 1%; Mito fusion act: -7%; Glioma ERSR ind: ·; A549 tox: ·; Nrf2 inh: ·; Nrf2 activator: ·
# `C=CCSc1nnc2nc3c(nn12)c1cc(C)ccc1n3CC=C` as listed: miR-21 FLuc: -15%; Mito fusion act: 14%; Glioma ERSR ind: -6%; A549 tox: -5%; Nrf2 inh: -20%; Nrf2 activator: 0%
# `CCOc1ccc(NS(=O)(=O)c2ccc(C(=O)N3CCN(c4ncccn4)CC3)cc2)cc1` as listed: miR-21 FLuc: 28%; Mito fusion act: 1%; Glioma ERSR ind: -3%; A549 tox: -21%; Nrf2 inh: 16µM*; Nrf2 activator: 2%

# Quoted at random: two records from the list.
SMILES,miR-21 FLuc,Mito fusion act,Glioma ERSR ind,A549 tox,Nrf2 inh,Nrf2 activator
C=CCSc1nnc2nc3c(nn12)c1cc(C)ccc1n3CC=C,-15%,14%,-6%,-5%,-20%,0%
CCOc1ccc(NC(=O)CCn2ccnc2)cc1,1%,9%,-7%,2%,0%,-1%

# (list continues)
SMILES,miR-21 FLuc,Mito fusion act,Glioma ERSR ind,A549 tox,Nrf2 inh,Nrf2 activator
CN(C)C(=O)CSc1nnc(Cc2ccccc2)n1Cc1ccco1,-2%,-1%,-8%,-7%,-18%,0%
O=C(CSc1nnc(Cc2ccccc2)n1Cc1ccco1)NC12CC3CC(CC(C3)C1)C2,12%,3%,-1%,-15%[1.84 µM],26µM*,2%
Cc1ccc(S(=O)(=O)N(CC(=O)Nc2ccccc2)C(=O)N2CCN(C)CC2)cc1,·,2%,-4%,3%,-1%,-1%
COc1ccc(NS(=O)(=O)c2ccc(N/N=C(\C)c3ccncc3)c([N+](=O)[O-])c2)cc1,2%,-1%,-5%,?,21µM*,0%
CCn1c(=O)cc(OCC(=O)N2CCN(c3ccc(F)cc3)CC2)c2ccccc21,7%,12%,-1%,-1%,?,0%
CCC(NC(=O)CCl)c1ccc(C)cc1 (configuration not stated),24%,-1%,-11%,?,23µM*,?
CCCC(NC(=O)CCl)c1ccccc1 (configuration not stated),26%,-3%,-2%,-18%,?,?
Oc1ccc(/C=N/Nc2nc(N3CCCCCC3)nc(N3CCCCCC3)n2)c(O)c1,?,3%,-14%,-18%,15µM*,-2%
O=[N+]([O-])c1ccc(/C=N/Nc2nc(N3CCCC3)nc(N3CCCC3)n2)o1,8%,-2%,-1%,?,23µM*,3%
O=[N+]([O-])c1ccc(/C=N/Nc2nc(-c3ccccc3)c3cc(Br)ccc3n2)o1,6%,1%,-1%,-3%,0%,0%
Cc1ccc2nc(N/N=C\c3ccc([N+](=O)[O-])o3)nc(-c3ccccc3)c2c1,4%,0%,-3%,23µM*,?,4%
Fc1ccc(Nc2nc(N/N=C/c3ccco3)nc(N3CCCCC3)n2)cc1,8%,-2%,2%,-7%,18µM*,0%
Cc1cccc(/C=N/n2c(C3CCCCC3)n[nH]c2=S)c1,-6%,-23%,-8%,5%,3%,0%
CC(/C=N/n1c(C2CCCCC2)n[nH]c1=S)=C\c1ccccc1,0%,-10%,1%,·,18µM*,-1%
COc1ccc(NC(=O)CCSc2ccc(C)cc2)cc1S(=O)(=O)Nc1ccccc1Cl,12%,0%,-1%,2%,23µM*,0%
COc1ccc(NS(=O)(=O)c2cc(NC(=O)CCSc3ccccc3)ccc2OC)cc1,-11%,?,-3%,-7%,?,2%
COc1ccc(NC(=O)C2CCC2)cc1S(=O)(=O)Nc1cc(C)ccc1Br,·,·,-5%,?,21µM*,0%
COc1ccc(NC(=O)[C@H](C)NC(N)=O)cc1S(=O)(=O)Nc1cc(C)ccc1Br,-1%,0%,-4%,-7%,2%,0%
CCCCOc1ccc(CSc2nc(C)[nH]c2[N+](=O)[O-])cc1[N+](=O)[O-],-6%,4%,4%,?,15µM*,5%
O=[N+]([O-])c1ccccc1NCc1c(O)ccc2ccccc12,0%,-4%,-3%,0%,5%,20%
Cc1ccc(S(=O)(=O)/C(C#N)=C/c2c[nH]c3ccccc23)cc1,2%,-9%,2%,-23%,16µM*,3%
O=C(COc1ccccc1Cl)N(Cc1ccco1)Cc1ccco1,-6%,·,-1%,13%,3%,13%
CCOc1ccc(-c2csc(/C(C#N)=C\c3ccc(O)c([N+](=O)[O-])c3)n2)cc1,-1%,-7%,-2%,16µM*,?,0%

# Screening data deposited in PubChem by National Center for Advancing Translational Sciences (NCATS).
